This is a selection: effects in other tests are not listed, and their absence says nothing.
Tested on: tobacco leaf discs
Experiment: Effect of opines on shoot formation in substrates without nitrogen
Assay type: cell-based
Conditions: substrate without nitrogen, 1 mg/l BA

Measured: number of shoots per 9 leaf discs

Ammonium nitrate
> 50: 10 mM | 20 mM | 40 mM | 80 mM
